Drawing on ChEMBL document CHEMBL1926634, “Structure-guided evolution of potent and selective CHK1 inhibitors through scaffold morphing” (J Med Chem, 2011), this text covers IC50 for 6 compounds.

This experiment addresses T1, Serine/threonine-protein kinase Chk1 (Homo sapiens, UniProt O14757).
T1 sequence (O14757 whole entry): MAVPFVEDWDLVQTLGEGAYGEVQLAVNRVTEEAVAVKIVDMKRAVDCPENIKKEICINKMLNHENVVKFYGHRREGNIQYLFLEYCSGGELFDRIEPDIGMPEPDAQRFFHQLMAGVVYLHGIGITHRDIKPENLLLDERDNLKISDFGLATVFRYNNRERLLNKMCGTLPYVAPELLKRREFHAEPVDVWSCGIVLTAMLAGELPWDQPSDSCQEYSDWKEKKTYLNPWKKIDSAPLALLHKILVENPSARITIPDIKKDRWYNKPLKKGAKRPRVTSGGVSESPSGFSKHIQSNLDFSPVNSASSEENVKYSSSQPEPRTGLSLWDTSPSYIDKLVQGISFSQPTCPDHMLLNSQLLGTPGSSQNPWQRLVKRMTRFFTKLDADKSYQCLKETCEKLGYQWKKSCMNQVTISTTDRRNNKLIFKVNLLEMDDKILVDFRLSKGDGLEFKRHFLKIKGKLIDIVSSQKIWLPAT

In turn, `N#Cc1cnc(Nc2cc(NCCCN)ncn2)cn1` returned an IC50 of 400 nM.

Compound `N#Cc1ncc(Nc2cc3ccccc3cn2)nc1OC1CCCNC1` (stereo unspecified) had an IC50 of 7 nM.

For the compound `N#Cc1cnc(Nc2cc3c(cn2)ncn3CC2CCNCC2)cn1`, it took 9000 nM to reach half-maximal inhibition (IC50).

As for `N#Cc1cnc(Nc2cc(NCCCO)ncn2)cn1`, the half-maximal inhibitory concentration (IC50) is 1800 nM.

`N#Cc1cnc(Nc2cc(N3CCC(N)CC3)ncn2)cn1` came in with an IC50 of 1200 nM.

Compound `N#Cc1cnc(Nc2cc(NCCN)ncn2)cn1` displayed an IC50 of 2500 nM.
